Amino acid sequences for entries named in this document (tags omitted).
UniProt O55242, whole entry: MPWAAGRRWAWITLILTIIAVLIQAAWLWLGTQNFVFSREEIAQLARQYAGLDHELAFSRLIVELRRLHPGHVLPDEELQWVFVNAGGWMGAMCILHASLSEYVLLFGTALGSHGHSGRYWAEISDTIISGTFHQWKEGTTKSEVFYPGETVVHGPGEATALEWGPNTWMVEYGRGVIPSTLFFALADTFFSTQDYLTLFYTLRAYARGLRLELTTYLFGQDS
UniProt Q61327, whole entry: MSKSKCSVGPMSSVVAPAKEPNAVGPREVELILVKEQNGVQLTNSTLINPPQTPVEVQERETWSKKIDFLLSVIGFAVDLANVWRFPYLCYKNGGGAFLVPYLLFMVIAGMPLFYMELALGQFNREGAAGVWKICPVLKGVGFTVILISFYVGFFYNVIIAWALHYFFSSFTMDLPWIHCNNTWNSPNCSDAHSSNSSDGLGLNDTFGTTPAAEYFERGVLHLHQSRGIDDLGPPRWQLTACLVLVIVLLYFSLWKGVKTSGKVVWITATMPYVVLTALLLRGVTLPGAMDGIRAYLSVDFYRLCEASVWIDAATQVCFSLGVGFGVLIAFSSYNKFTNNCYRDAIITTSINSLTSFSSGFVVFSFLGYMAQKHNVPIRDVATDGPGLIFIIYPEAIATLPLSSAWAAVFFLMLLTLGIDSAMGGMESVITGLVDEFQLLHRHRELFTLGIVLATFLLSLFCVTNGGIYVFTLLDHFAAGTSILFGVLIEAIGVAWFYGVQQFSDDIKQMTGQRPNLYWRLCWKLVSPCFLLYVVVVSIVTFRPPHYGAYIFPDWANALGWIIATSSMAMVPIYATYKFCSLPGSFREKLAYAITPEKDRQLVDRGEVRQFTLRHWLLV

According to paper PMC4724290 (Synapse (New York, N.Y.), 2015):

Key:
Brain level of = assay type: in vivo, CD-1 mice; settings: indicated by 3.45 ng/mg brain level
σ1 receptors [1] = target: T1, σ1 receptors (Mus musculus, UniProt O55242); experiment: In vitro σ1 receptor binding, [^3H]; set-up: species or system CD-1 mouse
DAT = settings: ref Garcés-Ramírez et al., 2011; cited from earlier work
σ2 receptors = target: T2, σ2 receptors (Mus musculus, UniProt Q8VD00); experiment: In vitro σ2 receptor binding, [^3H]DTG/; set-up: species or system CD-1 mouse; settings: 3.0 nM [^3H]DTG/500 nM (+)pentazocine, 25 °C, 60 min
T2 sequence (Q8VD00 1-176): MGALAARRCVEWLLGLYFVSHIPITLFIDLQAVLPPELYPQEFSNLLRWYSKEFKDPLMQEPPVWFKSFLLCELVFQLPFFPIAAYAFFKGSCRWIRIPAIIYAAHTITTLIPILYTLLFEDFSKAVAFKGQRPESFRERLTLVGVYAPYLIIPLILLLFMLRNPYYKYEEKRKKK

σ1 receptors [2] = target: T1, σ1 receptors; assay type: in vivo, CD-1 mice; settings: 60 min; for Specific Binding [^125I]E-IA-DM-PE-PIPZE, (−)-Cocaine: (−)-cocaine 100 μmol/kg i.p.
σ1 receptors [3] = target: T1, σ1 receptors; assay type: in vivo, CD-1 mice
[4] = target: striatal dopamine transporters (DAT) (Mus musculus, UniProt Q61327); experiment: In vivo DAT occupancy: inhibition of [^125I]RTI-121 specific binding in striatum; set-up: species or system CD-1 mice
σ1 receptors [5] = target: T1, σ1 receptors; experiment: In vitro σ1 receptor binding, [^125I]E-IA-DM-PE-PIPZE, brain membranes; set-up: species or system CD-1 mouse; settings: 1.0 nM [^125I]E-IA-DM-PE-PIPZE, 37 °C, 60 min
σ1 receptors [6] = target: T1, σ1 receptors; settings: 100 μmol/kg i.p. 1 min prior to radioligand, 30 min
[7] = (−)-cocaine hydrochloride 20 mg/kg (59 μmol/kg)

(−)-Cocaine hydrochloride
Concentration in whole mouse brain (Brain level of): 10 µM | Selectivity for binding to the DAT over σ1 receptors (rat striatal DAT): roughly 15 fold | Sigma1 nH (σ1 receptors [1]; 3.0 nM [^3H](+)pentazocine, 37 °C, 180 min): 1.00 ± 0.11 | Selectivity Ki Ratio σ2/σ1 (σ1 receptors [1]; CD-1 mouse whole brain membranes): 36 | Selectivity for binding to σ1 over σ2 receptors (σ1 receptors [1]; from Table II): 35 fold | IC50 (σ1 receptors [1]; read-out: Sigma1 IC50, 3.0 nM [^3H](+)pentazocine, 37 °C, 180 min): 2070 ± 341 nM | Affinity for the DAT relative to σ1 receptors (DAT): 70 fold | Sigma2 nH (σ2 receptors): 1.03 ± 0.05 | IC50 (σ2 receptors; read-out: Sigma2 IC50): 53400 ± 4150 nM | Average reduction of specific radioligand binding across 20 brain regions (σ1 receptors [2]; 100 μmol/kg i.p. pretreatment): 53.8 ± 3.2% | Specific Binding [^125I]E-IA-DM-PE-PIPZE, (−)-Cocaine (σ1 receptors [2]; Caudate-putamen): 0.87 ± 0.09 fmol/mg tissue | Specific Binding [^125I]E-IA-DM-PE-PIPZE, (−)-Cocaine (σ1 receptors [2]; Cortex, Cingulate): 1.36 ± 0.14 fmol/mg tissue | Specific Binding [^125I]E-IA-DM-PE-PIPZE, (−)-Cocaine (σ1 receptors [2]; Cortex, Entorhinal): 1.10 ± 0.11 fmol/mg tissue | Specific Binding [^125I]E-IA-DM-PE-PIPZE, (−)-Cocaine (σ1 receptors [2]; Cortex, Frontal): 1.58 ± 0.14 fmol/mg tissue | Specific Binding [^125I]E-IA-DM-PE-PIPZE, (−)-Cocaine (σ1 receptors [2]; Cortex, Parietal): 1.41 ± 0.13 fmol/mg tissue | Specific Binding [^125I]E-IA-DM-PE-PIPZE, (−)-Cocaine (σ1 receptors [2]; Cortex, Temporal): 1.43 ± 0.14 fmol/mg tissue | Specific Binding [^125I]E-IA-DM-PE-PIPZE, (−)-Cocaine (σ1 receptors [2]; Diencephalon, Thalamic nuclei): 1.60 ± 0.25 fmol/mg tissue | Specific Binding [^125I]E-IA-DM-PE-PIPZE, (−)-Cocaine (σ1 receptors [2]; Diencephalon, Thalamus): 1.52 ± 0.18 fmol/mg tissue | Specific Binding [^125I]E-IA-DM-PE-PIPZE, (−)-Cocaine (σ1 receptors [2]; Hippocampus, CA1 pyramidal): 1.04 ± 0.09 fmol/mg tissue | Specific Binding [^125I]E-IA-DM-PE-PIPZE, (−)-Cocaine (σ1 receptors [2]; Hippocampus, CA2 pyramidal): 1.41 ± 0.11 fmol/mg tissue | Specific Binding [^125I]E-IA-DM-PE-PIPZE, (−)-Cocaine (σ1 receptors [2]; Hippocampus, CA3 pyramidal): 1.50 ± 0.12 fmol/mg tissue | Specific Binding [^125I]E-IA-DM-PE-PIPZE, (−)-Cocaine (σ1 receptors [2]; Hippocampus, Dentate Gyrus): 1.39 ± 0.09 fmol/mg tissue | Specific Binding [^125I]E-IA-DM-PE-PIPZE, (−)-Cocaine (σ1 receptors [2]; Hippocampus, Nonpyramidal): 0.63 ± 0.09 fmol/mg tissue | Specific Binding [^125I]E-IA-DM-PE-PIPZE, (−)-Cocaine (σ1 receptors [2]; Mesencephalon, Inferior Colliculi): 1.69 ± 0.16 fmol/mg tissue | Specific Binding [^125I]E-IA-DM-PE-PIPZE, (−)-Cocaine (σ1 receptors [2]; Mesencephalon, Periaqueductal Gray): 1.78 ± 0.16 fmol/mg tissue | Specific Binding [^125I]E-IA-DM-PE-PIPZE, (−)-Cocaine (σ1 receptors [2]; Mesencephalon, Superior Colliculi): 1.59 ± 0.11 fmol/mg tissue | Specific Binding [^125I]E-IA-DM-PE-PIPZE, (−)-Cocaine (σ1 receptors [2]; Metencephalon, Cerebellum (whole)): 1.32 ± 0.14 fmol/mg tissue | Specific Binding [^125I]E-IA-DM-PE-PIPZE, (−)-Cocaine (σ1 receptors [2]; Metencephalon, Granular layer): 1.90 ± 0.15 fmol/mg tissue | Specific Binding [^125I]E-IA-DM-PE-PIPZE, (−)-Cocaine (σ1 receptors [2]; Metencephalon, Molecular layer): 1.08 ± 0.08 fmol/mg tissue | Specific Binding [^125I]E-IA-DM-PE-PIPZE, (−)-Cocaine (σ1 receptors [2]; White Matter, Corpus callosum): 1.29 ± 0.17 fmol/mg tissue | Fractional occupancy of cerebral σ1 receptors by mass-action calculation (σ1 receptors [3]; 10 μM brain concentration, 1075 nM apparent affinity): ~90% | Reduction of specific binding in whole brain by anatomical dissection (σ1 receptors [3]; 100 μmol/kg i.p., 15 min prior, 60 min (Fig. 1A)): 57% | ED50 for σ1 receptor occupancy relative to the DAT (σ1 receptors [3]; 68 vs 26 μmol/kg): 2.6 fold | Occupancy of σ1 receptors (σ1 receptors [3]; [7]): 46% | Maximal level of inhibition of specific [^125I]RTI-121 binding ([4]; 10 to 100 μmol/kg i.p.): 67% | Occupancy of the DAT [4, 7]: 62% | ED50 for inhibition of specific [^125I]RTI-121 binding (striatal DAT occupancy) ([4]; drug i.p. 1 min prior to radioligand, 30 min, bottom plateau constrained to zero): 26 µmol/kg | Sigma1 nH (σ1 receptors [5]): 0.91 ± 0.11 | IC50 (σ1 receptors [5]; read-out: Sigma1 IC50): 1360 ± 53 nM | Ki (σ1 receptors [5]; read-out: Sigma1 Ki): 1080 ± 42 nM | Inhibition of radioligand uptake, average over brain regions (σ1 receptors [6]): 37% | Inhibition of radioligand uptake, hippocampus (σ1 receptors [6]): 27% | Inhibition of radioligand uptake, olfactory tubercles (σ1 receptors [6]): 45%

Read-outs that look alike come from different tables or passages of the source.
